The test deals with human URAT1 (Homo sapiens (Human), UniProt Q96S37). Description: Inhibition of 14C-uric acid absorption in URAT1 cell model (HEK-293T cells transfected with human URAT1). The format is cell-based. Particulars: read-out: URAT1 IC50 Activity level; HEK-293T cells transfected with human URAT1, 14C-uric acid uptake, 5 min, 37 degrees.

The chains behind the UniProt entries cited, without tags or fusion partners.
UniProt Q96S37, whole entry: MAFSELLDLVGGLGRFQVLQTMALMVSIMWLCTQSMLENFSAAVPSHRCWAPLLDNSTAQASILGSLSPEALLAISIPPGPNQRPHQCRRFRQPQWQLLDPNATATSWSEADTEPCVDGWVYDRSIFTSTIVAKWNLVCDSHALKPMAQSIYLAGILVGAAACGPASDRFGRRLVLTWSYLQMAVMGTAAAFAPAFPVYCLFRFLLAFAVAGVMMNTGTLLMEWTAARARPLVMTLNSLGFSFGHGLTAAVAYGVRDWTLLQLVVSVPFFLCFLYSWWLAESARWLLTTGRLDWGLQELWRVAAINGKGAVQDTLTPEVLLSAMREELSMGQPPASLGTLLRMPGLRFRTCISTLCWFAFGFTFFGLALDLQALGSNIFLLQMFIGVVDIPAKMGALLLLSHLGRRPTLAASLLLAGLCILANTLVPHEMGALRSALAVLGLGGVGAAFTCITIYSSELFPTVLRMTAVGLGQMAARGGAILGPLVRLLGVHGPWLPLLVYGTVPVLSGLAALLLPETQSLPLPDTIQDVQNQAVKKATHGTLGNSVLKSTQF

IC50 data for one compound are collected here from patent US9856239B1, “Carboxylic acid compound, method for preparation thereof, and use thereof” (INVENTISBIO SHANGHAI LTD., priority 2014, dated 2018).

pIC50: −log10 of the molar value.

The term pIC50 denotes the IC50 on a negative log10 scale, so that one unit is a factor of ten.

For `N#Cc1ccc(-c2cc(F)ccc2SCC2(CC(=O)O)CC2)cc1`, the negative-log IC50 (pIC50) was over 7.00.
